What was measured:
[1] = target: T1, prothrombinase complex (Homo sapiens, UniProt P00742); experiment: Tissue factor-initiated thrombin generation assay in human plasma; type: biochemical
T1 construct: from tissue; host or cells: pooled human plasma
Protocol: The lines represent the best fittings; Kd and Ki values are listed. mOD min^−1=miliOptical Density per minute. […] Grey bar: Control plasma alone (PPP), Filled bar: rivaroxaban or rivaroxaban+r-antidote, Open bar: Control plasma+r-antidote. […] Thrombin generation was initiated by addition of Ca^2+ and tissue factor (TF). Cleavage of thrombin specific substrate Z-GGR-AMC (RFU=Relative Fluorescence Units) was measured at 37° C. for 10 min.
(§1) Anesthetized rats were administered enoxaparin (4.5 mg/kg) or vehicle by I.V. bolus injection followed by tail transection (2 mm from tip) 5 minutes later. […] The tip of the tail was placed in physiologic saline at 37° C. and blood collected for an additional 45 minutes after tail transection. Blood was lysed by diluting in water and freezing at −80° C. overnight. […] Anti-fXa activity of enoxaparin was measured using a modified chromogenic LMW heparin kit. Tissue factor (TF)-initiated thrombin generation was carried out in human plasma using a fluorogenic thrombin substrate by measurement of change of relative fluorescence unit (RFU) for 10 min following initiation of the reaction.
Innovin was used as the source of TF to initiate the generation of thrombin. The reaction mixture (final volume=100 μL) contained 15 mM Ca^2, 100 μM Z-GGR-AMC, and 0.1 nM TF. […] Tris-buffered saline (20 mM Tris, 150 mM NaCl, pH=7.4) was used to adjust the final volume of the reaction mixture.

Sequences of proteins named here, by UniProt entry; tags and fusion partners are left off. Residues count along the entry.
UniProt P00742, 41-179 limits assumed: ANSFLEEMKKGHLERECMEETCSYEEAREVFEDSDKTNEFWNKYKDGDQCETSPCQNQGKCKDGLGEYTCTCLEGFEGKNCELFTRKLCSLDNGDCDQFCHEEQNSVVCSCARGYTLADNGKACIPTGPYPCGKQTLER
UniProt P00742, 235-488 limits assumed: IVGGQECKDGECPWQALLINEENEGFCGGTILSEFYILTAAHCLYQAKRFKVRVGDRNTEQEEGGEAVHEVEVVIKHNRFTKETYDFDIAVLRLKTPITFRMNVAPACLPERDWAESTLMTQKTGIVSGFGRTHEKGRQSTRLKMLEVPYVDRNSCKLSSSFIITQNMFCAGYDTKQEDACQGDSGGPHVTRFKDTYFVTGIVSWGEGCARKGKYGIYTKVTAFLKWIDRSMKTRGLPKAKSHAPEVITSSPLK
UniProt P01008, 33-464: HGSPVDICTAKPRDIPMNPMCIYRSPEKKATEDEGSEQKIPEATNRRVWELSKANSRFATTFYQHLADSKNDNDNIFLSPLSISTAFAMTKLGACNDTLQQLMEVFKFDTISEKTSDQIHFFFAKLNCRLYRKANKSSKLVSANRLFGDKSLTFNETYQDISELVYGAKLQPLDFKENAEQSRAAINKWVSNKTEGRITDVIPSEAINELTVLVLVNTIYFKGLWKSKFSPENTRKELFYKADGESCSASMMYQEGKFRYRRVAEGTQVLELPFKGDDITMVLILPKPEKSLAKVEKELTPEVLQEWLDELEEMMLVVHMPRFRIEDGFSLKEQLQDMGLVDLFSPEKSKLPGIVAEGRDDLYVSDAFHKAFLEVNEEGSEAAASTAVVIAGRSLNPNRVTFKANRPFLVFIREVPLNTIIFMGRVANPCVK

[2] = Plasma levels of r-Antidote in rats (ELISA); type: in vivo, rat; conditions: for Peak Plasma Concentration: rat
Protocol: Then, tail transection was initiated another 5 min later, and cumulative blood loss was measure for up to 45 minutes.
as §1

[3] = system: blood loss; experiment: Rat tail transection treatment model, r-Antidote given after bleeding initiated; type: in vivo; conditions: for Reduction of blood loss: vs. Enox+vehicle
Protocol: In a pilot study using this antidote treatment model, anesthetized rats were intravenously (IV) administered either vehicle or enoxaparin (4.5 mg/kg, IV bolus) followed by tail transection at 5 min post-dosing.
as §1

[4] = target: T2, ATIII-fondaparinux complex (Homo sapiens, UniProt P01008); experiment: Kinetics of fXa inhibition by ATIII-fondaparinux complex with r-Antidote; type: biochemical
T2 construct: purchased Haematologic Technologies
Protocol: The solid lines represent the non-linear fitting of the experimental data with a single exponential decay function.
To further investigate the specific interaction between r-Antidote and ATIII, an evaluation was carried out in a reconstituted system with purified human proteins (fXa, ATIII, fondaparinux). […] The solid lines represent the non-linear fitting of the experimental data with a single exponential decay function. […] The program Dynafit was used to perform kinetic analyses of curves generated using a series of ATIII-fondaparinux and PRT064445 concentrations. This analysis yielded a dissociation constant of 53 nM for PRT064445/ATIII-fondaparinux complex.
Kinetics of fXa inhibition by ATIII and the ATIII-fondaparinux complex were carried out under pseudo-first order reaction conditions where the ATIII concentration exceeded the fXa concentration in the fXa+ATIII reaction. In reactions containing fondaparinux, a limiting amount of fondaparinux was mixed with saturating ATIII concentrations. […] Following initiation of the reaction, 10 μL of reaction mixture were removed at various time points and assayed for residual fXa activity by measuring Spectrozyme-fXa cleavage. fXa activity was normalized by comparing it to the activity at t=0 before addition of either fondaparinux or ATIII (E/Eo).

[5] = system: whole blood INR; experiment: Whole blood INR in fXa inhibitor infused rats; type: in vivo; conditions: r-Antidote IV bolus 4 mg/rat, sustained by 4 mg/hr infusion; rivaroxaban rats
Protocol: Whole blood INR (mean±SD, n=4/group) was measured by Hemochron Jr microcoagulation system. […] Whole blood INR (mean±SD, n=4/group) is presented. […] Whole blood INR (mean±SD, n=5-6/group) is presented. […] INR=international normalized ratio; min=minute.
For human in vitro and rat ex vivo experiments, PT was measured using MLA Electra 800 automatic coagulation timer. Innovin was automatically dispensed to plasma samples (100 μL) per manufacturer's instructions. […] For rabbit experiments, PT and aPTT were measured using a Beckman Coulter ACL Elite instrument with HemosIL reagents (available commercially from Instrumentation Laboratories). Whole blood INR (International Normalized Ratio) for animal samples were measured by Hemchron Jr. Signature Cartridges (International Technidyne Corporation) according to manufacturer's instructions.
Upon cessation of infusion, coagulation marker in the vehicle treated group decreased gradually due to clearance of circulating inhibitor. […] Baseline values in rat blood correspond to an INR of 2.2 rather than 1, since the cartridges used for measurement are calibrated for human use. […]
Blood sampling catheter patency was maintained by slow infusion of normal saline. […] Total fXa inhibitor concentration was measured by HPLC with tandem mass spectrometry.

B1: r-Antidote: processed two-chain polypeptide of SEQ ID NO: 3; modified, catalytically inactive human recombinant fXa lacking the Gla domain (protein)
chain: ANSFLFWNKYKDGDQCETSPCQNQGKCKDGLGEYTCTCLEGFEGKNCELFTRKLCSLDNGDCDQFCHEEQNSVVCSCARGYTLADNGKACIPTGPYPCGKQTLERIVGGQECKDGECPWQALLINEENEGFCGGTILSEFYILTAAHCLYQAKRFKVRVGDRNTEQEEGGEAVHEVEVVIKHNRFTKETYDFDIAVLRLKTPITFRMNVAPACLPERDWAESTLMTQKTGIVSGFGRTHEKGRQSTRLKMLEVPYVDRNSCKLSSSFIITQNMFCAGYDTKQEDACQGDAGGPHVTRFKDTYFVTGIVSWGEGCARKGKYGIYTKVTAFLKWIDRSMKTRGLPKAKSHAPEVITSSPLK
modifications: processed two-chain form
effect on enoxaparin mediated inhibition of thrombin generation ([1]; human plasma, in vitro): reversed the enoxaparin mediated inhibition of thrombin generation
formation of thrombin (RFU) ([1]; r-Antidote up to 3.3 μM): remained essentially unchanged
Peak Plasma Concentration ([2]; r-Antidote 0.5 mg bolus): 0.45 µM
Peak Plasma Concentration ([2]; r-Antidote 1 mg bolus): 1.1 µM
Peak Plasma Concentration ([2]; r-Antidote 2 mg bolus): 1.8 µM
Peak Plasma Concentration ([2]; r-Antidote 4 mg bolus): 4.3 µM
half life of r-Antidote ([2]; rats): about 15 minutes
r-Antidote plasma ([2]; time point 20, r-Antidote 0.5 mg): 0.5 µM
r-Antidote plasma ([2]; time point 20, r-Antidote 1 mg): 1.1 µM
r-Antidote plasma ([2]; time point 20, r-Antidote 2 mg): 1.8 µM
r-Antidote plasma ([2]; time point 20, r-Antidote 4 mg): 4.3 µM
r-Antidote plasma ([2]; time point 30, r-Antidote 0.5 mg): 0.3 µM
r-Antidote plasma ([2]; time point 30, r-Antidote 1 mg): 0.6 µM
r-Antidote plasma ([2]; time point 30, r-Antidote 2 mg): 1.2 µM
r-Antidote plasma ([2]; time point 30, r-Antidote 4 mg): 2.4 µM
r-Antidote plasma ([2]; time point 45, r-Antidote 0.5 mg): 0.2 µM
r-Antidote plasma ([2]; time point 45, r-Antidote 1 mg): 0.4 µM
r-Antidote plasma ([2]; time point 45, r-Antidote 2 mg): 0.6 µM
r-Antidote plasma ([2]; time point 45, r-Antidote 4 mg): 1.3 µM
r-Antidote plasma ([2]; time point 60, r-Antidote 0.5 mg): 0.1 µM
r-Antidote plasma ([2]; time point 60, r-Antidote 1 mg): 0.2 µM
r-Antidote plasma ([2]; time point 60, r-Antidote 2 mg): 0.3 µM
r-Antidote plasma ([2]; time point 60, r-Antidote 4 mg): 0.7 µM
cumulative blood loss relative to enoxaparin only group ([3]; pilot study, enoxaparin 4.5 mg/kg, r-Antidote 4 mg/rat after 5 min of blood loss, end of experiment): less than 20%
time after bolus injection until bleeding significantly reduced or stopped for all rats ([3]; pilot study, r-Antidote 4 mg/rat after 5 min of blood loss): ≤ 5 min
Reduction of blood loss ([3]; r-Antidote 1 mg bolus 10 min after tail transection, enoxaparin 4.5 mg/kg): 60%
Reduction of blood loss ([3]; r-Antidote 2 mg bolus 10 min after tail transection, enoxaparin 4.5 mg/kg): 56%
Reduction of blood loss ([3]; r-Antidote 4 mg bolus 10 min after tail transection, enoxaparin 4.5 mg/kg): 62%
animals with complete cessation of bleeding ([3]; r-Antidote 1, 2 or 4 mg bolus): 70-85%
Kd ([4]; Dynafit kinetic analysis, purified human proteins, read-out: dissociation constant for PRT064445/ATIII-fondaparinux complex): 53 nM
effect on inhibition of fXa by ATIII ([4]; in the absence of fondaparinux (data not shown)): minimal effect
reversal of whole blood INR [5]: rapidly and completely reversed to baseline values

Reference: US20200129597A1, “MODULATION OF FACTOR Xa INHIBITOR-MEDIATED BLOOD LOSS BY PARTIAL AND TRANSIENT ADMINISTRATION OF ANTIDOTE” (Portola Pharmaceuticals, Inc., priority 2012, published 2020)
